Measurements as given in PubChem BioAssay AID463111 (Johns Hopkins Ion Channel Center, 2010).
Only a part is listed here, and it is no random draw. Active and inactive are the calls of the source.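 How the source made its calls: active means B-score of the integrated calcium signal more than 4 SD below the library mean, with starting fluorescence not abnormally high; inactive means the rest.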

Assay: enhancers of RGS4 function in calcium signaling – cell-based, HEK293 M3R inducible RGS4, calcium flux, primary screen (AID 463111);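 on B-score: negative B-score means reduced calcium response which marks RGS4 activation or potentiation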
Details: HEK293 M3R/inducible RGS4, carbachol calcium flux Fluo4, at 10 µM; hits give low values
In short: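 Also added: carbachol at ECmax as muscarinic agonist stimulus; Assay system: HEK293 cells with stable M3R and inducible RGS4; Timing: overnight RGS4 induction, 30 min dye load 37 °C, 20 min compound RT; Measured by: Fluo4-AM (2 µM) calcium-flux fluorescence, kinetic read.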
With `CCN1CCC(Nc2ccc(Cl)cc2)CC1` the outcome was “inactive”.
With `N#CC1(Nc2ccccc2)CCN(CCc2ccccc2)CC1` the outcome was “inactive”.
In the case of `O=C(NCC1(N2CCCCC2)CCCCC1)c1cccc([N+](=O)[O-])c1`, the outcome was “inactive”.
For `O=C(NCC1(N2CCCCC2)CCCCC1)c1ccc(OC(F)F)cc1`, the outcome was “inactive”.
For `COc1cc(C(=O)NCC2(N3CCCCC3)CCCCC2)ccc1OC(F)F`, the B-score was active: -8.
In the case of `O=C(NCC1(N2CCOCC2)CCCCC1)c1cc(=O)[nH]c2ccccc12`, the outcome was “inactive”.
For `CN1CCN(CCOC(=O)C(O)(c2ccccc2)c2ccccc2)CC1`, the outcome was “inactive”.
With `COc1ccc(NC2CCN(C(=O)OC(C)(C)C)CC2)cc1` the outcome was “inactive”.
In the case of `O=C(NCC1(N2CCCCC2)CCCCC1)c1cccc(C(F)(F)F)c1`, the outcome was “inactive”.
For `COc1cc(OC)c(C(=O)NCC2(N(C)C)CCCCC2)cc1OC`, the outcome was “inactive”.
For `CC(C)c1ccc(NC2CCN(C(=O)OC(C)(C)C)CC2)cc1`, the outcome was “inactive”.
With `COc1ccc(CN(CCCl)CCCl)cc1Cl` the outcome was “inactive”.
With `CN(C)c1cccc(C(=O)NCC2(N3CCCCC3)CCCCC2)c1` the outcome was “inactive”.
In the case of `CCCOc1ccc(C(=O)NCC2(N(C)C)CCCCC2)cc1OC`, the outcome was “inactive”.
With `CN1CCC(Nc2cccc(F)c2)CC1` the outcome was “inactive”.
With `CSc1ccccc1C(=O)NCC1(N2CCCCC2)CCCCC1` the outcome was “inactive”.
In the case of `COc1ccc(C(=O)NCC2(N3CCCCC3)CCCCC2)cc1`, the outcome was “inactive”.
In the case of `COc1ccc(C(=O)NCC2(N3CCCCC3)CCCCC2)c(OC)c1OC`, the outcome was “inactive”.
In the case of `CC(C)(C)OC(=O)N1CCC(N(C(=O)c2ccccc2)c2ccc(F)cc2)CC1`, the outcome was “inactive”.
With `O=C(NCC1(N2CCCCC2)CCCCC1)c1ccc(=O)[nH]c1` the outcome was “inactive”.
For `O=C(NCC1(N2CCCCC2)CCCCC1)c1cccs1`, the outcome was “inactive”.
With `O=C(OC1CN2CCC1CC2)C1c2ccccc2Oc2ccccc21` (centres undefined) the B-score was active: -6.97.
For `N#CC1(Nc2ccccc2)CCN(Cc2ccccc2)CC1`, the outcome was “inactive”.
For `CCOC(=O)N1CCC(Nc2ccc(OC)cc2)CC1`, the outcome was “inactive”.
For `O=C(NCC1(N2CCCCC2)CCCCC1)c1ccc(Cl)nc1`, the outcome was “inactive”.
For `Cc1cc(C)cc(N(C(=O)c2ccccc2)C2CCN(C(=O)OC(C)(C)C)CC2)c1`, the outcome was “inactive”.
For `O=C(NCC1(N2CCOCC2)CCCCC1)c1cc2ccccc2o1`, the outcome was “inactive”.
In the case of `O=C(NCC1(N2CCCCC2)CCCCC1)c1ccc(F)cc1`, the outcome was “inactive”.
In the case of `COc1ccc(NC2CCN(CCc3ccccc3)CC2)c(OC)c1`, the outcome was “inactive”.
With `CCOC(=O)N1CCC(Nc2ccc(F)cc2)CC1` the outcome was “inactive”.
In the case of `CCOc1ccc(C)cc1CN(CCCl)CCCl`, the B-score was active: -11.1.
With `COc1cc(C(=O)NCC2(N(C)C)CCCCC2)ccc1OC(F)F` the outcome was “inactive”.
For `CCOC(=O)N1CCC(Nc2cccc(C)c2)CC1`, the outcome was “inactive”.
With `Cc1ccc(OCC(C)C)c(CN(CCCl)CCCl)c1` the outcome was “inactive”.
With `Cc1ccc(C(=O)NCC2(N3CCCCC3)CCCCC2)o1` the outcome was “inactive”.
In the case of `Fc1ccccc1NC1CCN(Cc2ccccc2)CC1`, the outcome was “inactive”.
For `COc1cc(OC)cc(C(=O)NCC2(N3CCCCC3)CCCCC2)c1`, the outcome was “inactive”.
For `CN(C)c1ccc(C(=O)NCC2(N3CCCCC3)CCCCC2)cc1`, the outcome was “inactive”.
With `CCN1CCC(Nc2cccc(F)c2)CC1` the outcome was “inactive”.
For `CC(C)(C)OC(=O)N1CCC(Nc2ccccc2)CC1`, the outcome was “inactive”.
For `O=C(O)C1(Nc2ccccc2)CCN(Cc2ccccc2)CC1`, the outcome was “inactive”.
For `CCCOc1ccc(C(=O)NCC2(N(C)C)CCCCC2)cc1`, the outcome was “inactive”.
In the case of `CCOc1ncccc1C(=O)NCC1(N2CCOCC2)CCCCC1`, the outcome was “inactive”.
With `CN1CCC(Nc2ccc(F)c(Cl)c2)CC1` the outcome was “inactive”.
In the case of `CN1CCC(Nc2ccc(Cl)cc2)CC1`, the outcome was “inactive”.
In the case of `CCCOc1ccc(C)cc1CN(CCCl)CCCl`, the B-score was active: -7.79.
For `COc1cc(OC)cc(C(=O)NCC2(N3CCOCC3)CCCCC2)c1`, the outcome was “inactive”.
In the case of `COc1cccc(C(=O)N(c2cc(C)cc(C)c2)C2CCN(C(=O)OC(C)(C)C)CC2)c1`, the outcome was “inactive”.
For `CCC(CO)(C(=O)OC1CN2CCC1CC2)c1ccccc1` (centres undefined), the outcome was “inactive”.
In the case of `COc1ccc(C(=O)NCC2(N3CCOCC3)CCCCC2)cc1OC`, the outcome was “inactive”.
In the case of `O=C(OC1CN2CCC1CC2)C1c2ccccc2C=Cc2ccccc21` (centres undefined), the B-score was active: -9.04.
For `CCc1cc(C(=O)NCC2(N3CCCCC3)CCCCC2)sc1C`, the outcome was “inactive”.
With `CCOC(=O)N1CCC(Nc2ccc(C)cc2)CC1` the outcome was “inactive”.
For `N/C(=N\O)c1c(N)no[n+]1[O-]`, the outcome was “inactive”.
For `N#Cc1ccc(C(=O)NCC2(N3CCCCC3)CCCCC2)cc1`, the outcome was “inactive”.
In the case of `CC(C)(C)OC(=O)N1CCC(N(C(=O)c2ccccc2)c2ccc(Cl)cc2)CC1`, the outcome was “inactive”.
In the case of `CN(C)C1(CNC(=O)c2cccc(C#N)c2)CCCCC1`, the outcome was “inactive”.
For `c1ccc(CN2CCC(Nc3ccccc3)CC2)cc1`, the outcome was “inactive”.
With `CCCN1CCC(Nc2cc(OC)cc(OC)c2)CC1` the outcome was “inactive”.
